The IC50 is the concentration needed to halve the response being measured. Lower therefore signals greater potency in that assay.

The chains behind the UniProt entries cited, without tags or fusion partners.
UniProt Q15059, whole entry: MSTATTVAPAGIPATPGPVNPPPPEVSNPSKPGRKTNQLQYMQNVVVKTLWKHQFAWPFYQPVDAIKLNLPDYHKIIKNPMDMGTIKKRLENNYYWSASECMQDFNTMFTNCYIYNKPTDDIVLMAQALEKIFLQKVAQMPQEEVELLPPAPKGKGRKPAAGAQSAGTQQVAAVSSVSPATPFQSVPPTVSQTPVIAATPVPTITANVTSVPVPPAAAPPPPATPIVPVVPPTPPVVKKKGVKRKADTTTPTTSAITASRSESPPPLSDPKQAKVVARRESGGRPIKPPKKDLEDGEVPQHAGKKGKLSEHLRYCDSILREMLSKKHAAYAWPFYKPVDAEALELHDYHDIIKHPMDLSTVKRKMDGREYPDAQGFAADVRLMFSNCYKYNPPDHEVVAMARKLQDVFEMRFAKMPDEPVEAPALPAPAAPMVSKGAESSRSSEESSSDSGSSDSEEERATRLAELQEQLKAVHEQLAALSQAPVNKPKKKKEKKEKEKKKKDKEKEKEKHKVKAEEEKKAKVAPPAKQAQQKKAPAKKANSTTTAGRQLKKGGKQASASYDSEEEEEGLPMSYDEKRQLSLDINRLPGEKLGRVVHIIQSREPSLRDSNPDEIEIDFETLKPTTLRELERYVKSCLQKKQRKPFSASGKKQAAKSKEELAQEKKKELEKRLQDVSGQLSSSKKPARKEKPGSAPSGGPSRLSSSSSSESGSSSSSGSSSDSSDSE

This assay addresses Bromodomain-containing protein 3 (Homo sapiens, UniProt Q15059).

On to `Cc1nnc2n1-c1ccccc1C(c1ccccc1)=NC2NC(=O)OCc1ccccc1` (stereo unspecified), for which half-maximal inhibition (IC50) was put at 631 nM.
